Results: patent publication US9995740B2, “Method of determining temperature and method of detecting a target peptide” (SYSMEX CORPORATION, priority 2015, dated 2018)

Assay: Isoelectric point (pI) of the peptides of Table 3
Assay type: physicochemical

RSA21: SEQ ID NO: 3, 18 amino acid residues (RLIEDICLPRWGCLWEDD; Synthetic sequence of RSA21)
pI: 4.1
